# According to paper PMC11381339:
# Molecular target: uL14m, mitoribosome large subunit (mtLSU) marker (human (endogenous in HEK293T)) (UniProt Q6P1L8)
# Test: co-sedimentation; 0.3-1 M sucrose gradient of HEK293T mitochondrial extracts prepared in 0.6% digitonin, 100 mM KCl, 20 mM MgCl2, 20 mM HEPES pH 7.4; 152 000 x g, 3 h 10 min, 4 C; 15 fractions, SDS-PAGE and immunoblot
substance,measurement,value
TACO1 (translational activator of the mtDNA-encoded cytochrome c oxidase subunit 1) (from UniProt Q9BSH4 1-297) (natural protein),portion of TACO1 that co-sediments,< 5%
